Values of other authors as cited in patent US3931396A, “Method of preparation of a composition having a base of 99^m technetium for diagnosis by scintigraphy” (priority 1974, dated 1976).

System: bone
Conditions: prior art, in words; cited from earlier work

## fluorophosphate
  tropism: poor tropism
